Test results reported in ChEMBL document CHEMBL1133090, “3D-QSAR CoMFA on cyclin-dependent kinase inhibitors” (J Med Chem, 2000).

Protein sequences, listed by entry. Tags and fused reporters are not part of them.
UniProt P06493, whole entry: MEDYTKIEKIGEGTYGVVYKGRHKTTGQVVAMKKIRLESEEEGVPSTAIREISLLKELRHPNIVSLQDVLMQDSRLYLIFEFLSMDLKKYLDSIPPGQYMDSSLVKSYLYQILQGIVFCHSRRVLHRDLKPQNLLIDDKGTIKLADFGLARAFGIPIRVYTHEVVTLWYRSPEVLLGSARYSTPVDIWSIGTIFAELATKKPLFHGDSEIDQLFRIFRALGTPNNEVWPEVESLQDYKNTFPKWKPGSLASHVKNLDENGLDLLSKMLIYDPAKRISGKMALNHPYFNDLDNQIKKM

molecular target: Cyclin-dependent kinase 1 (Homo sapiens, UniProt P06493)

| SMILES | IC50 [nM] |
| --- | --- |
| CC(C)n1cnc2c(NC(CO)c3ccccc3)nc(N3CCC[C@H]3CO)nc21 (stereo not given in full) | 800 |
| CC(C)n1cnc2c(NCc3cc(C(F)(F)F)cc(C(F)(F)F)c3)nc(N3CCC[C@@H]3CO)nc21 | 1000 |
| CC(C)n1cnc2c(NCc3ccc(C(F)(F)F)cc3)nc(N3CCC[C@@H]3CO)nc21 | 800 |
| COc1ccccc1CNc1nc(N2CCC[C@@H]2CO)nc2c1ncn2C(C)C | 1800 |
| CC(C)n1cnc2c(NCc3ccc4c(c3)OCO4)nc(N3CCC[C@@H]3CO)nc21 | 350 |
| COc1ccc(CNc2nc(N3CCC[C@@H]3CO)nc3c2ncn3C(C)C)cc1 | 210 |
| COc1cccc(CNc2nc(N3CCC[C@@H]3CO)nc3c2ncn3C(C)C)c1 | 300 |

Further lines, results first:

| IC50 [nM] | SMILES |
| --- | --- |
| 10000 | CC(C)n1cnc2c(NC(CO)c3ccccc3)nc(N3CCC[C@@H]3CO)nc21 (stereo not given in full) |
| 300 | COc1cc(CNc2nc(N3CCC[C@@H]3CO)nc3c2ncn3C(C)C)cc(OC)c1 |
| 700 | CC(C)n1cnc2c(NCc3cccc(C(F)(F)F)c3)nc(N3CCCC3CO)nc21 (single isomer, unassigned) |
